Test: Inhibition of Toxoplasma gondii RH full length CDPK1 expressed in Escherichia coli BL21(DE3) using syntide-2 peptide as substrate after 20 mins by ELISA
Assay type: cell-free
Method in brief: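 His-tagged recombinant CDPK1 purified by nickel affinity. Syntide-2-coated plates blocked with 3% BSA. Reaction run 20 min at 30°C in HEPES pH 7.5 with 10 mM MgCl₂, 2.5 mM CaCl₂, 0.1 mM EGTA and 1 mM DTT. Each enzyme used at its half-maximal-activity concentration with ATP at its own Km. Phosphopeptide detected by mAb MS-6E6/HRP-TMB at A450. Triplicates; IC50 from variable-slope sigmoidal fit.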

CC(C)(C)n1nc(-c2cccc3ccccc23)c2c(N)ncnc21
IC50: 2.13 nM
